Values quoted from earlier work in patent US11891351B2, “Synthesis of capsaicin derivatives” (dated 2024).

How the values were obtained:
[1] = Rage Paulsen et al., Toxicology Research and Application 2018, 2, 1
[2] = tested on: gene mutations and chromosomal damage; settings: Rage Paulsen et al., Toxicology Research and Application 2018, 2, 1
[3] = EFSA NDA Panel et al., EFSA Journal 2019, 17(6), e05718

In the case of COc1cc(CNC(=O)CCCCC#Cc2ccccc2)ccc1O, the systemic toxicity [1] is listed as “low systemic toxicity”, the “safety with regards to gene mutations and chromosomal damage” value [2] is listed as “safe with regards to gene mutations and chromosomal damage” and the “safety assessment by the European Food Safety Authority” value [3] is listed as “regarded as safe”.
